The source of these data is patent US20250195530A1, “POLQ INHIBITORS” (ASTRAZENECA AB, priority 2022, published 2025).

Amino acid sequences for entries named in this document (tags omitted). Residues count along the entry.
UniProt O75417, 1780-2590: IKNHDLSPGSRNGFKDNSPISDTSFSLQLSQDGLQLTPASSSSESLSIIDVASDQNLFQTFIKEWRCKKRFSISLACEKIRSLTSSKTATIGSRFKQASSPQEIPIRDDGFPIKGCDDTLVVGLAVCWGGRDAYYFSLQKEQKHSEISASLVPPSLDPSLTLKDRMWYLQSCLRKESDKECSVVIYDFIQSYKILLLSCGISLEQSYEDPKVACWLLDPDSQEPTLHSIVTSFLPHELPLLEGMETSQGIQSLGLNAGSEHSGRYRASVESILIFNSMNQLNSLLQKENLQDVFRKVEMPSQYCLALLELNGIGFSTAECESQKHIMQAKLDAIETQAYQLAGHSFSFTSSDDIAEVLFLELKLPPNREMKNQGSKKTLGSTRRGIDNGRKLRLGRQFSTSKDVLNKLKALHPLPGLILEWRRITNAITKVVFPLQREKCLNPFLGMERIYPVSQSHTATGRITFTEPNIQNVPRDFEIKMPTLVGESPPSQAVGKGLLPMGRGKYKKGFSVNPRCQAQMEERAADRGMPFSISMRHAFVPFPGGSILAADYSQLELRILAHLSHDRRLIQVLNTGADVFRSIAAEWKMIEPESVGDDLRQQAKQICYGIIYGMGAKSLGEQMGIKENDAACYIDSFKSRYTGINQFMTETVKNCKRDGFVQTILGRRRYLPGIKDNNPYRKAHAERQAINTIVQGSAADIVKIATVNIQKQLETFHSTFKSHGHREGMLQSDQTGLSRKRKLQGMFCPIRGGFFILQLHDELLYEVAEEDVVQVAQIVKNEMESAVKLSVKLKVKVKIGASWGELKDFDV

This test has as its target isolated polymerase domain (I1780-V2590) of DNA polymerase theta (Polθ) (Homo sapiens (Human), UniProt O75417).

`Cc1cc(N2CC(N(C)C)C2)ncc1-c1nc2c(OC3(C)CC3)ncnc2n1Cc1ccccc1` [Example F2, 1-(5-(9-benzyl-6-(1-methylcyclopropoxy)-9H-purin-8-yl)-4-methylpyridin-2-yl)-N,N-dimethylazetidin-3-amine] gave an IC50 of 2.51 nM.
For `Cc1cc(N2CCC(N(C)C)CC2)ncc1-c1nc2c(OC3(C)CC3)ncnc2n1Cc1ccccc1` [Example F3, 1-(5-(9-benzyl-6-(1-methylcyclopropoxy)-9H-purin-8-yl)-4-methylpyridin-2-yl)-N,N-dimethylpiperidin-4-amine], half-maximal inhibition (IC50) required 2.51 nM.
Compound `Cc1cc(OCCCN2CCNCC2)ncc1-c1nc2c(OC3(C)CC3)ncnc2n1Cc1ccccc1` [Example G1, 9-benzyl-8-(4-methyl-6-(3-(piperazin-1-yl)propoxy)pyridin-3-yl)-6-(1-methylcyclopropoxy)-9H-purine] showed an IC50 of 2.51 nM.
The result for `Cc1cc(OCCCN(C)C)ncc1-c1nc2c(OC3(C)CC3)ncnc2n1Cc1ccccc1` [Example G2, 3-((5-(9-benzyl-6-(1-methylcyclopropoxy)-9H-purin-8-yl)-4-methylpyridin-2-yl)oxy)-N,N-dimethylpropan-1-amine] reads 3.16 nM.
On to `CC(=O)N1CCN(CCCOc2cc(C)c(-c3nc4c(OC5(C)CC5)ncnc4n3Cc3ccccc3)cn2)CC1` [Example G3, 1-(4-(3-((5-(9-benzyl-6-(1-methylcyclopropoxy)-9H-purin-8-yl)-4-methylpyridin-2-yl)oxy)propyl)piperazin-1-yl)ethan-1-one], for which the IC50 was 2 nM.
`CC(=O)N1CCN(CCOc2cc(C)c(-c3nc4c(OC5(C)CC5)ncnc4n3Cc3ccccc3)cn2)CC1` [Example G4, 1-(4-(2-((5-(9-benzyl-6-(1-methylcyclopropoxy)-9H-purin-8-yl)-4-methylpyridin-2-yl)oxy)ethyl)piperazin-1-yl)ethan-1-one] had an IC50 of 2 nM.
In the case of `Cc1cc(OCCN2CCNCC2)ncc1-c1nc2c(OC3(C)CC3)ncnc2n1Cc1ccccc1` [Example G6, 9-benzyl-8-(4-methyl-6-(2-(piperazin-1-yl)ethoxy)pyridin-3-yl)-6-(1-methylcyclopropoxy)-9H-purine], the IC50 was 2.51 nM.
The result for `Cc1cc(OCCCN2CCOCC2)ncc1-c1nc2c(OC3(C)CC3)ncnc2n1Cc1ccccc1` [Example G7, 4-(3-((5-(9-benzyl-6-(1-methylcyclopropoxy)-9H-purin-8-yl)-4-methylpyridin-2-yl)oxy)propyl)morpholine] reads 3.16 nM; that for `Cc1cc(OCCN)ncc1-c1nc2c(OC3(C)CC3)ncnc2n1Cc1ccccc1` [Example G8, 2-((5-(9-benzyl-6-(1-methylcyclopropoxy)-9H-purin-8-yl)-4-methylpyridin-2-yl)oxy)ethan-1-amine], 2.51 nM.
Compound `Cc1cc(OCCCN)ncc1-c1nc2c(OC3(C)CC3)ncnc2n1Cc1ccccc1` [Example G9, 3-((5-(9-benzyl-6-(1-methylcyclopropoxy)-9H-purin-8-yl)-4-methylpyridin-2-yl)oxy)propan-1-amine] showed an IC50 of 3.98 nM.
The result for `CC(=O)N1CC(Oc2cc(C)c(-c3nc4c(OC5(C)CC5)ncnc4n3Cc3ccccc3)cn2)C1` [Example G10, 1-(3-((5-(9-benzyl-6-(1-methylcyclopropoxy)-9H-purin-8-yl)-4-methylpyridin-2-yl)oxy)azetidin-1-yl)ethan-1-one] reads 5.01 nM; that for `Cc1cc(O[C@H]2CCNC2)ncc1-c1nc2c(OC3(C)CC3)ncnc2n1Cc1ccccc1` [Example G11, (S)-9-benzyl-8-(4-methyl-6-(pyrrolidin-3-yloxy)pyridin-3-yl)-6-(1-methylcyclopropoxy)-9H-purine], 3.98 nM; that for `Cc1cc(OCCN(C)C)ncc1-c1nc2c(OC3(C)CC3)ncnc2n1Cc1ccccc1` [Example G12, 2-((5-(9-benzyl-6-(1-methylcyclopropoxy)-9H-purin-8-yl)-4-methylpyridin-2-yl)oxy)-N,N-dimethylethan-1-amine], 6.31 nM.
With `Cc1cc(O[C@H]2CCCNC2)ncc1-c1nc2c(OC3(C)CC3)ncnc2n1Cc1ccccc1` [Example G13, (S)-9-benzyl-8-(4-methyl-6-(piperidin-3-yloxy)pyridin-3-yl)-6-(1-methylcyclopropoxy)-9H-purine], 3.16 nM corresponded to half-maximal inhibition (IC50).
The result for `Cc1c(-c2nc3c(OC4(C)CC4)ncnc3n2Cc2ccccc2)ccnc1OCCN1CCNCC1` [Example G14, 9-benzyl-8-(3-methyl-2-(2-(piperazin-1-yl)ethoxy)pyridin-4-yl)-6-(1-methylcyclopropoxy)-9H-purine] reads 2.51 nM.
Regarding `Cc1cc(OC[C@H]2CNCCO2)ncc1-c1nc2c(OC3(C)CC3)ncnc2n1Cc1ccccc1` [Example G15, (R)-2-(((5-(9-benzyl-6-(1-methylcyclopropoxy)-9H-purin-8-yl)-4-methylpyridin-2-yl)oxy)methyl)morpholine], the IC50 was 5.01 nM.
As for `Cc1cc(OC[C@H]2COCCN2)ncc1-c1nc2c(OC3(C)CC3)ncnc2n1Cc1ccccc1` [Example G16, (R)-3-(((5-(9-benzyl-6-(1-methylcyclopropoxy)-9H-purin-8-yl)-4-methylpyridin-2-yl)oxy)methyl)morpholine], the figure is 3.98 nM; as for `Cc1cc(OC2CNC2)ncc1-c1nc2c(OC3(C)CC3)ncnc2n1Cc1ccccc1` [Example G17, 8-{6-[(azetidin-3-yl)oxy]-4-methylpyridin-3-yl}-9-benzyl-6-[(1-methylcyclopropyl)oxy]-9H-purine], 10 nM.
`CN1CCN(CCOc2cc(F)c(-c3nc4c(OC5(C)CC5)ncnc4n3Cc3ccccc3)c(F)c2)CC1` [Example H1, 9-benzyl-8-(2,6-difluoro-4-(2-(4-methylpiperazin-1-yl)ethoxy)phenyl)-6-(1-methylcyclopropoxy)-9H-purine] gave an IC50 of 2.51 nM.
Compound `CN1CCN(CCOc2ccc(-c3nc4c(OC5(C)CC5)ncnc4n3Cc3ccccc3)c(F)c2)CC1` [Example H2, 9-benzyl-8-(2-fluoro-4-(2-(4-methylpiperazin-1-yl)ethoxy)phenyl)-6-(1-methylcyclopropoxy)-9H-purine] gave an IC50 of 2 nM.
Compound `COc1cc(OCCN2CCN(C)CC2)ccc1-c1nc2c(OC3(C)CC3)ncnc2n1Cc1ccccc1` [Example H3, 9-benzyl-8-(2-methoxy-4-(2-(4-methylpiperazin-1-yl)ethoxy)phenyl)-6-(1-methylcyclopropoxy)-9H-purine] gave an IC50 of 3.16 nM.
`Cc1cc(OCCN2CCN(C)CC2)cc(C)c1-c1nc2c(OC3(C)CC3)ncnc2n1Cc1ccccc1` [Example H4, 9-benzyl-8-(2,6-dimethyl-4-(2-(4-methylpiperazin-1-yl)ethoxy)phenyl)-6-(1-methylcyclopropoxy)-9H-purine]: the IC50 is 2 nM.
For `CN1CCN(CCOc2ccc(-c3nc4c(OC5(C)CC5)ncnc4n3Cc3ccccc3)c(F)c2F)CC1` [Example H5, 9-benzyl-8-(2,3-difluoro-4-(2-(4-methylpiperazin-1-yl)ethoxy)phenyl)-6-(1-methylcyclopropoxy)-9H-purine], half-maximal inhibition (IC50) required 2.51 nM.
For `CN1CCN(CCOc2ccc(-c3nc4c(OC5(C)CC5)ncnc4n3Cc3ccccc3)c(Br)c2)CC1` [Example H6, 9-benzyl-8-(2-bromo-4-(2-(4-methylpiperazin-1-yl)ethoxy)phenyl)-6-(1-methylcyclopropoxy)-9H-purine], the IC50 was 2 nM.
Turning to `CN1CCN(CCOc2ccc(-c3nc4c(OC5(C)CC5)ncnc4n3Cc3cccnc3)c(Cl)c2)CC1` [Example H7, 8-(2-chloro-4-(2-(4-methylpiperazin-1-yl)ethoxy)phenyl)-6-(1-methylcyclopropoxy)-9-(pyridin-3-ylmethyl)-9H-purine], the IC50 was 20 nM.
Consider `CN1CCN(CCOc2ccc(-c3nc4c(OC5(C)CC5)ncnc4n3Cc3ccccc3)c(C#N)c2)CC1` [Example H8, 2-(9-benzyl-6-(1-methylcyclopropoxy)-9H-purin-8-yl)-5-(2-(4-methylpiperazin-1-yl)ethoxy)benzonitrile], for which the midpoint of inhibition, the IC50, lay at 3.98 nM.
Compound `C#Cc1cc(OCCN2CCN(C)CC2)ccc1-c1nc2c(OC3(C)CC3)ncnc2n1Cc1ccccc1` [Example H9, 9-benzyl-8-(2-ethynyl-4-(2-(4-methylpiperazin-1-yl)ethoxy)phenyl)-6-(1-methylcyclopropoxy)-9H-purine] gave an IC50 of 3.98 nM.
Consider `CN1CCN(CCOc2ccc(-c3nc4c(OC5(C)CC5)ncnc4n3Cc3ccccc3)c(CO)c2)CC1` [Example H10, (2-(9-benzyl-6-(1-methylcyclopropoxy)-9H-purin-8-yl)-5-(2-(4-methylpiperazin-1-yl)ethoxy)phenyl)methanol], for which it took 3.98 nM to reach half-maximal inhibition (IC50).
In the case of `CC1(Oc2ncnc3c2nc(-c2ccc(OCCC(=O)O)cc2Cl)n3Cc2ccccc2)CC1` [Example H11, 3-(4-(9-benzyl-6-(1-methylcyclopropoxy)-9H-purin-8-yl)-3-chlorophenoxy)propanoic acid], the half-inhibitory concentration (IC50) is 5.01 nM.
`CC1(Oc2ncnc3c2nc(-c2ccc(OCCN4CCC[C@H]4C(=O)O)cc2Cl)n3Cc2ccccc2)CC1` [Example H12, (2-(4-(9-benzyl-6-(1-methylcyclopropoxy)-9H-purin-8-yl)-3-chlorophenoxy)ethyl)-L-proline] had an IC50 of 6.31 nM.
As for `CC1(Oc2ncnc3c2nc(-c2ccc(OCCN4CC[C@@H](O)C4)cc2Cl)n3Cc2ccccc2)CC1` [Example H13, (R)-1-(2-(4-(9-benzyl-6-(1-methylcyclopropoxy)-9H-purin-8-yl)-3-chlorophenoxy)ethyl)pyrrolidin-3-ol], the figure is 2.51 nM.
The result for `CC1(Oc2ncnc3c2nc(-c2ccc(OCCN4CC(O)C4)cc2Cl)n3Cc2ccccc2)CC1` [Example H14, 1-(2-(4-(9-benzyl-6-(1-methylcyclopropoxy)-9H-purin-8-yl)-3-chlorophenoxy)ethyl)azetidin-3-ol] reads 2.51 nM; that for `CC1(Oc2ncnc3c2nc(-c2ccc(OCCN4CCC(O)CC4)cc2Cl)n3Cc2ccccc2)CC1` [Example H15, 1-(2-(4-(9-benzyl-6-(1-methylcyclopropoxy)-9H-purin-8-yl)-3-chlorophenoxy)ethyl)piperidin-4-ol], 2.51 nM.
